Protein sequences, listed by entry. Tags and fused reporters are not part of them. Lines headed by an entry give the natural chain unless they say otherwise; changes in a name come on top.
UniProt O76083: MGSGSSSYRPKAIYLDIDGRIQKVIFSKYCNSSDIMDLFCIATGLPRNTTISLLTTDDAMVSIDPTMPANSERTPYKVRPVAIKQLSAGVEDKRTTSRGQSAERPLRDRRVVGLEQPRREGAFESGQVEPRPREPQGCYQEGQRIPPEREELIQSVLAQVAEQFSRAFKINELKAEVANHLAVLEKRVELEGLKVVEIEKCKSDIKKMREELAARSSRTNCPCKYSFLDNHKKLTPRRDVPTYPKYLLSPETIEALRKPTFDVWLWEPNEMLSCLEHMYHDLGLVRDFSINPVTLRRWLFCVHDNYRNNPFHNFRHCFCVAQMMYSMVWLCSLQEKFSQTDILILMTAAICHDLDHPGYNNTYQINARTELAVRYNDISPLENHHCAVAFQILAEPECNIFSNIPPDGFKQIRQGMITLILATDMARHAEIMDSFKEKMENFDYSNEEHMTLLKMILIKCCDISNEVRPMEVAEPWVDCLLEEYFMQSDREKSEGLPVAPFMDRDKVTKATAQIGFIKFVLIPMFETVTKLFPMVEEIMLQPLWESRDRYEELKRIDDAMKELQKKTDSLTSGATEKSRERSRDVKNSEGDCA
UniProt O00408, whole entry: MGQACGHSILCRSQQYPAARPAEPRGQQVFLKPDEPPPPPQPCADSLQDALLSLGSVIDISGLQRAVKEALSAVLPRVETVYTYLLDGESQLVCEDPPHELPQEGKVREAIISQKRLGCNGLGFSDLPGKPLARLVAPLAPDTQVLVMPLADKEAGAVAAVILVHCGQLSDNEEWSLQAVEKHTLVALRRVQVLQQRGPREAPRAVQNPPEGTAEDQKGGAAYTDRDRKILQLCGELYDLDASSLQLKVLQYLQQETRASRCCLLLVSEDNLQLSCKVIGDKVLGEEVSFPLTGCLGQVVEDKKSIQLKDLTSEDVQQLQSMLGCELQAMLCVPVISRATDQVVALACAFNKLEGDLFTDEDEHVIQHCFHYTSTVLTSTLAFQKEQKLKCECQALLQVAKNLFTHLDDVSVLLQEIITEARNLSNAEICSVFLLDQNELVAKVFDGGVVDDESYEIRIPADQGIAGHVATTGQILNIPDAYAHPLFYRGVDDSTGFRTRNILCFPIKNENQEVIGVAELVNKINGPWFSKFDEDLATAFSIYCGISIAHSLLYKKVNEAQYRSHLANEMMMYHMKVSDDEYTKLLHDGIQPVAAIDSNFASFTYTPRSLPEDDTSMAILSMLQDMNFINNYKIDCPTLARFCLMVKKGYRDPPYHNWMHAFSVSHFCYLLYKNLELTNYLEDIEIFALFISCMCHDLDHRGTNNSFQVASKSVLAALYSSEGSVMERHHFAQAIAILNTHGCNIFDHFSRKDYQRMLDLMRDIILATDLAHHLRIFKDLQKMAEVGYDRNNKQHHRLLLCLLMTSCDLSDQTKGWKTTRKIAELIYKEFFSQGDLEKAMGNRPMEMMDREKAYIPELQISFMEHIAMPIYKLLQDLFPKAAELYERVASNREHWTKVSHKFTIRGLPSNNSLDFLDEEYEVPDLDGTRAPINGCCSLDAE

According to ChEMBL document CHEMBL3769405, “Discovery of Potent and Selective Inhibitors of Phosphodiesterase 1 for the Treatment of Cognitive Impairment Associated with Neurodegenerative and Neuropsychiatric Diseases” (J Med Chem, 2016):

Assays:
[1] = target: High affinity cGMP-specific 3',5'-cyclic phosphodiesterase 9A (Homo sapiens, UniProt O76083); assay: Inhibition of recombinant full lenght human PDE9A using fluorescent labeled cGMP as substrate after 15 mins by IMAP assay
[2] = target: cGMP-dependent 3',5'-cyclic phosphodiesterase (Homo sapiens, UniProt O00408); assay: Inhibition of recombinant full length human PDE2A using fluorescent labeled cAMP as substrate after 15 mins by IMAP assay

CN1C(=O)c2c(nn(Cc3ccc(-c4cccc(F)n4)cc3)c2Nc2ccccc2)N2C1=N[C@@H]1CCC[C@@H]12.O=P(O)(O)O [LENRISPODUN PHOSPHATE] was tested, and the Ki [1] was 17 µM and the Ki [2] was 18 µM.
